For one molecule, IC50 results are on record in ChEMBL document CHEMBL2321856, “Optimizing small molecule inhibitors of calcium-dependent protein kinase 1 to prevent infection by Toxoplasma gondii” (J Med Chem, 2013).

SMILES strings stand for the structures.

The experiment is described as follows: Inhibition of Toxoplasma gondii RH full length CDPK1 expressed in Escherichia coli BL21(DE3) using syntide-2 peptide as substrate after 20 mins by ELISA. The experiment is classed as cell-free. The gist of the method:
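His-tagged recombinant CDPK1 purified by nickel affinity. Syntide-2-coated plates blocked with 3% BSA. Reaction run 20 min at 30°C in HEPES pH 7.5 with 10 mM MgCl₂, 2.5 mM CaCl₂, 0.1 mM EGTA and 1 mM DTT. Each enzyme used at its half-maximal-activity concentration with ATP at its own Km. Phosphopeptide detected by mAb MS-6E6/HRP-TMB at A450. Triplicates; IC50 from variable-slope sigmoidal fit.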
Background: ELISA stands for enzyme-linked immunosorbent assay.

By IC50 is commonly meant the point on the concentration scale where inhibition reaches its midpoint. Lower therefore signals greater potency. `CC(C)(C)n1nc(-c2cccc3ccccc23)c2c(N)ncnc21` yielded a half-inhibitory concentration (IC50) of 2.13 nM.
